These results are taken from patent US6087401A, “Cyclopentenones, process for preparing the same, and the use thereof” (Takara Shuzo Co., Ltd., priority 1996, dated 2000).

This data set can be described thus: stability of the cyclopentenone in solution (TLC). The following applies: 25 mM in water or 10 mM tris-HCl (pH 7), one month, room temperature and 4° C.

Regarding `O=C1C=CC(O)C1O` (stereo not shown) [the cyclopentenone, 4,5-dihydroxy-2-cyclopenten-1-one], the stability entry is “some decomposed matters after one month although mostly nondecomposed”.
